pIC50: −log10 of the molar value.
Molecular target: EGFR (UniProt P00533)

Amino acid sequences for entries named in this document (tags omitted).
UniProt P00533, whole entry, looked up: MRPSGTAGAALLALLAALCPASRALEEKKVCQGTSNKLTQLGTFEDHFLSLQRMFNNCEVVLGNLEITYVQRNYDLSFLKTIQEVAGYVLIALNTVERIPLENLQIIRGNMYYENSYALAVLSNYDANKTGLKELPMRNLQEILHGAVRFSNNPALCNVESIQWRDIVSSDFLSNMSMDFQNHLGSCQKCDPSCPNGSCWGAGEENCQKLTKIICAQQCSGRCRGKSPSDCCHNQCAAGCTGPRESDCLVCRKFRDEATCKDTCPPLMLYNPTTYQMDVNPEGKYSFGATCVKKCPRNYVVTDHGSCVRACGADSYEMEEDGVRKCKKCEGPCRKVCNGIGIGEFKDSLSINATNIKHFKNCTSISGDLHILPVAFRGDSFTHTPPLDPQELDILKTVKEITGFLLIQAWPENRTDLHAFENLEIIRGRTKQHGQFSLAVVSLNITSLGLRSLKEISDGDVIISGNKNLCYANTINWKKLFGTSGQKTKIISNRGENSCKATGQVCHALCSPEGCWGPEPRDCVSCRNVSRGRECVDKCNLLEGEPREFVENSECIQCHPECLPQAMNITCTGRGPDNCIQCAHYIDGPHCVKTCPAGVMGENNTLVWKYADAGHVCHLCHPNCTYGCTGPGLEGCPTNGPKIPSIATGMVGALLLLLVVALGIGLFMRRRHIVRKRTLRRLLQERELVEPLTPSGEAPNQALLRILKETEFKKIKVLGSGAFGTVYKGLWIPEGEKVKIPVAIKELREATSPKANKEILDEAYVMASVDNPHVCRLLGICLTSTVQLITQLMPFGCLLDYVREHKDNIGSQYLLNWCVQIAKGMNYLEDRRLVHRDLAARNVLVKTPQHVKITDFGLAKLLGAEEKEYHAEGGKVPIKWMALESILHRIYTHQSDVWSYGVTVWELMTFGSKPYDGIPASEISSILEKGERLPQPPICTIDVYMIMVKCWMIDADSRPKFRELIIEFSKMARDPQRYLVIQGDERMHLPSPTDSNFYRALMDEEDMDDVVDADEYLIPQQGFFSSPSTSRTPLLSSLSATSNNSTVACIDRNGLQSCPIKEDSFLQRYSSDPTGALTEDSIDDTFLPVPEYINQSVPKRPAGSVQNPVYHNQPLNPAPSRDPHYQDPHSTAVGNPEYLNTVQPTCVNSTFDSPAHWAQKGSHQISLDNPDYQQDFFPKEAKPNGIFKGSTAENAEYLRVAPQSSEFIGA

## COc1cc2ncnc(Nc3cccc(Cl)c3)c2cc1OC
  pIC50: 9.51

From the Kinase Knowledgebase extract (Sharma et al. 2016)
